Reference: paper PMC11756387, “Improving the solubility of pseudo-hydrophobic chemicals through co-crystal formulation” (PNAS Nexus, 2025)

Amino acid sequences for entries named in this document (tags omitted). Residues count along the entry.
UniProt P10636, 623-695 limits assumed: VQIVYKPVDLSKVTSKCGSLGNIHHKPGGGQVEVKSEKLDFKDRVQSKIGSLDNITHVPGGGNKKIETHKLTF

Target: AD tau (Homo sapiens, UniProt P10636)
Conditions: AD brain homogenates preincubated with counterion alone

## OCCN(CCO)CCO
  Inhibitory activity of counterions toward tau seeding: neither TEA nor Ca(OH)2 exhibited inhibitory activity
